pIC50: −log10 of the molar value.
Legend:
Glutamate NMDA receptor [1] = experiment: Activity against rat cortical and hippocampal membrane N-methyl-D-aspartate glutamate receptor 1/2A/2B/2C/2D using [3H]CPP; assay type: tissue-based, Hippocampus
Glutamate NMDA receptor [2] = experiment: Activity against rat cortical and hippocampal membrane strychnine-insensitive N-methyl-D-aspartate glutamate receptor 1 using [3H]-gly; assay type: tissue-based, Hippocampus

pIC50 (Glutamate NMDA receptor [1]): 4.12
pIC50 (Glutamate NMDA receptor [2]): 4.80
Compound: O=C(O)c1cc(=O)c2ccccc2[nH]1 [TRANSTORINE]

— ChEMBL document CHEMBL1124998, “3-(2-carboxyindol-3-yl)propionic acid derivatives: antagonists of the strychnine-insensitive glycine receptor associated with the N-methyl-D-aspartate receptor complex” (J Med Chem, 1990)
